The values that follow are results of earlier work, collected in paper PMC8405992.

Amino acid sequences for entries named in this document (tags omitted). Residues count along the entry.
UniProt P38764, 391-642: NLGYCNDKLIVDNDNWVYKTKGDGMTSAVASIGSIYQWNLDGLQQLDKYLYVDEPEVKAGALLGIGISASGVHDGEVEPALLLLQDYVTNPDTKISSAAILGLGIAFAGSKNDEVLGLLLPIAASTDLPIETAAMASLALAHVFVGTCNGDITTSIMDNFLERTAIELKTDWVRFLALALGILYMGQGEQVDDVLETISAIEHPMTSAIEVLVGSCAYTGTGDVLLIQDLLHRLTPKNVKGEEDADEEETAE

For data set [1], the target named is K11-linked diubiquitin (Homo sapiens) (UniProt P0CG48). The data set is described as follows: NMR titration.
For data set [2], the target named is K48-linked diubiquitin (Homo sapiens) (UniProt P0CG48). Briefly: NMR titration.

As to Rpn1 391-642 (from UniProt P38764), the Kd is 28 µM in data set [1] and 123 µM in data set [2].

Usually Kd stands for the free concentration of one partner at which half of the binding sites on the other are occupied at equilibrium, for simple one-to-one binding.
